{
  "sequences": {"note": "By UniProt entry, the sequences of proteins in these tests, tags left out. Residues count along the entry.", "UniProt P0AEG4, 20-208": "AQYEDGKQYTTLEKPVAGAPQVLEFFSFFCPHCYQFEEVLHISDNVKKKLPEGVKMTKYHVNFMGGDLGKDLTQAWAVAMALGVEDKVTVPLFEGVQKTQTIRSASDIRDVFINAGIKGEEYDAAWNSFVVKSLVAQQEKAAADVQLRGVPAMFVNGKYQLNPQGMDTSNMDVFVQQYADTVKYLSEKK", "UniProt P32557, 20-200": "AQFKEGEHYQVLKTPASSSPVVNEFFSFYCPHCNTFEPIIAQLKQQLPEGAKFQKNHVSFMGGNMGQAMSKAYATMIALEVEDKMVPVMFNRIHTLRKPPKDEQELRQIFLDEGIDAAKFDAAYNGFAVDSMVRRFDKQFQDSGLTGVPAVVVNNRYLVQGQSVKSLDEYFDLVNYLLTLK"},
  "source": "paper PMC9305425",
  "about": "(Chemmedchem, 2022)",
  "key": {"[1]": {"target": "oxidized EcDsbA (Escherichia coli, UniProt P0AEG4)", "format": "binding", "parameters": "made in house; host or cells: E. coli BL21(DE3)"}, "[2]": {"target": "T1, oxidized VcDsbA (Vibrio cholerae serotype O1, UniProt P32557)", "T1 construct": "made in house; host or cells: E. coli BL21(DE3)", "assay": "biochemical", "format": "binding"}},
  "note": "pKd: −log10 of the molar value. Several values for one entry are separate records, joined by “and”; a condition that tells them apart may be missing. Identical values can stand only once.",
  "data": [
    {"smiles": "C[C@H](CCC(=O)NCCS(=O)(=O)O)[C@H]1CC[C@H]2[C@@H]3[C@H](O)C[C@@H]4C[C@H](O)CC[C@]4(C)[C@H]3C[C@H](O)[C@]12C", "note": "[TC, sodium taurocholate]", "values": [
      {"measurement": "protein unfolding seen in HSQC spectra", "setting": "[1]", "value": "did not induce protein unfolding"},
      {"measurement": "effect on the oxidation state of DsbA", "setting": "[2]", "value": "no effect on the oxidation state"},
      {"measurement": "protein unfolding seen in HSQC spectra", "setting": "[2]", "value": "did not induce protein unfolding"},
      {"measurement": "pKd", "setting": "[2]; equilibrium dissociation constant (KD)", "value": "3.83 and ~3.83"}
    ]}
  ]
}
